scFv variants of Ab-14 (light chain) against a SARS-CoV-2 spike peptide

Source: Engelhart et al. 2022 (doi:10.1038/s41597-022-01779-4), MIT Lincoln Laboratory and A-Alpha Bio; data file from the FLAb repository.

All variants were tested on one target, the spike HR2 peptide PDVDLGDISGINAS (SARS-CoV-2).

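The parent was found by panning a naive human phage display library on the peptide. AAYL50 was designed without a model: most single CDR substitutions and a random sample of double and triple ones. The scFvs were displayed on barcoded MATa yeast, the peptide on MATalpha yeast. Pairs that bind mate more often; barcode pairs of the diploids are counted by sequencing. Read counts were normalised to the haploid input and turned into Kd by a linear fit to BCL2-family pairs of known affinity, for each replicate. The assay was run in three technical replicates.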

Ab-14 is the parent antibody, in scFv form: VH, then a 15-residue (Gly4Ser)3 linker, then VL. The heavy chain is unchanged in all variants.
VH: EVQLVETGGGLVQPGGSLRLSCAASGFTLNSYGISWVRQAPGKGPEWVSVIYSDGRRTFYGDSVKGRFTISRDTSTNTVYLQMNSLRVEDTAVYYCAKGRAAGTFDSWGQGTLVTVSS
VL: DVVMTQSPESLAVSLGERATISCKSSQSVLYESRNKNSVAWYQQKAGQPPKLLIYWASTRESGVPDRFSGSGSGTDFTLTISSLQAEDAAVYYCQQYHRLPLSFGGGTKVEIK

Changes read parent residue, position, new residue, counted from the first residue of the VL shown. This list gathers variants with a substitution at R99 (VL, numbered from residue 1). Numbers give log10(Kd / nM), so 0 is 1 nM and 3 is 1 µM. Smaller is tighter. An entry "nd" has no value in the source: the pair was not observed among the diploids in that replicate. This suggests poor binding but is not conclusive. In this assay the parent's reference entry averaged 0.65; its copy inside this library read 1.68. As a blank, each scFv also met three strains without target: over library AAYL50, 18% of these pairings were detected, typically at 4.19 and seldom below 2.99.

The variant S38Y A40Y R99Q showed nd, nd, nd.
The variant V29Y E61C R99A showed 0.71, 0.80, 0.97.
The variant S33A Q96T R99W showed nd, nd, nd.
The variant N35F R60T R99S showed 3.31, 3.98, 4.74.
The variant S26K Q27A R99D showed 1.11, 1.35, 1.35.
The variant V29N R99K P101D showed 2.06, 1.67, 2.41.
The variant S28Y V39G R99H showed nd, nd, 4.78.
The variant R99F L102Y S103C showed nd, nd, nd.
The variant R34S S58Y R99T showed nd, nd, nd.
The variant S38W R99E L100H showed nd, 4.71, nd.
The variant K36G S62T R99D showed 2.60, 1.71, 2.28.
The variant R60A R99P S103T showed nd, nd, nd.
The variant R34C Q96S R99M showed 2.48, 2.48, 2.80.
The variant E32S N37M R99P showed nd, nd, nd.
The variant R99L L102N S103A showed 1.61, 2.24, 1.71.
The variant R99T showed 4.65, 4.01, nd.
The variant L30V Q96C R99G showed nd, nd, nd.
The variant Q96V R99K showed nd, 4.12, nd.
The variant K24D N37A R99F showed 4.11, 3.21, 3.47.
The variant L30S Q95S R99G showed 4.08, 3.18, 3.57.
The variant N37T R99P showed nd, nd, nd.
The variant S26C S38N R99F showed 1.50, 1.25, 1.02.
The variant V29D E61C R99V showed 0.77, 1.00, 0.83.
The variant S62V Q95M R99C showed 3.32, 3.25, 3.90.
The variant R60P Q95V R99S showed nd, nd, nd.
The variant R99D showed 2.33, 2.99, 1.85.
The variant E32N E61A R99V showed 2.28, 2.83, 2.50.
The variant E32S R99D P101D showed 5.32, 3.47, nd.
The variant T59E R99E S103T showed 0.59, 0.62, 0.82.
The variant Q27Y W56G R99G showed -0.06, 0.29, 0.07.

The 3 strongest on average among those seen in every replicate, once more:

Variant Q27Y W56G R99G showed -0.06, 0.29, 0.07.
Variant T59E R99E S103T showed 0.59, 0.62, 0.82.
Variant V29Y E61C R99A showed 0.71, 0.80, 0.97.